The entries are a selection whose mix differs from that of the whole data set. Some salts and complexes are drawn in separate pieces, as the source files them; their charges need not balance. The source made the active and inactive calls. Rule as the data show it: active = inhibition above about 4.5%; inactive = the rest.

The test system of this assay is Methionine sulfoxide reductase A (Bos taurus). The assay is described as follows: inhibition of methionine sulfoxide reductase A – biochemical, absorbance, bovine, HTS, primary screen (AID 651718).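 Also: 0% = vehicle wells with enzyme and 100% = reference inhibitor wells.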 The note with it: purified bovine MsrA, absorbance read-out; at 15.5 µM; hits give high values.
In the case of `COc1ccc2c(c1O)-c1c(O)c(OC)cc3c1[C@H](C2)[N+](C)(C)CC3.O=[N+]([O-])c1cc([N+](=O)[O-])c([O-])c([N+](=O)[O-])c1[O-]`, the inhibition is inactive: 3.5%.
The result for `CP(=O)(Nc1ccc(SC(F)(F)F)cc1)Oc1ccc(F)cc1` (configuration not stated) reads inactive: -1.22%; that for `CCOP(C)(=S)SCC(=O)NC(C)(CC)C(=O)O` (configuration not stated), inactive: 0.64%.
As for `CCOP(=O)(CC)OCC`, the figure is inactive: 1.37%; as for `CP(=O)(Nc1ccc2c(c1)OCCO2)Oc1ccccc1` (configuration not stated), inactive: 0.51%.
As for `Cc1ccccc1NP(C)(=O)Nc1ccccc1C`, the figure is inactive: -0.79%; as for `O=[N+]([O-])c1cc([N+](=O)[O-])c(C(F)(F)F)c([N+](=O)[O-])c1O`, inactive: 2.27%.
For `COc1ccc(OP(C)(=O)Nc2cccc(Br)c2)cc1` (configuration not stated), the inhibition was inactive: 0.74%.
As for `CN(C)CCOC(=O)C(O)(c1ccccc1)C1CCCCC1` (configuration not stated), the inhibition is inactive: -0.17%.
The result for `COc1ccc(NP(C)(=O)Oc2ccccc2OC)cc1` (configuration not stated) reads inactive: -0.97%.
As for `O=[N+]([O-])c1ccc(OP2(=O)COCCO2)cc1` (configuration not stated), the figure is inactive: -0.39%.
As for `Cc1cc(-c2cccc3ccccc23)c(C)cn1.O=[N+]([O-])c1cc([N+](=O)[O-])c(O)c([N+](=O)[O-])c1`, the figure is inactive: 1.99%.
As for `O=[N+]([O-])c1cc([N+](=O)[O-])c(NCC2CCS(=O)(=O)C2)c([N+](=O)[O-])c1` (configuration not stated), the inhibition is active: 5.02%.
The result for `Cc1c(C(c2ccc3c(c2)OCO3)c2c(C)n(C)n(-c3ccccc3)c2=O)c(=O)n(-c2ccccc2)n1C.O=[N+]([O-])c1cc([N+](=O)[O-])c(O)c([N+](=O)[O-])c1` reads inactive: 0.89%; that for `Nc1ccc2c(ccc3cccnc32)n1.O=[N+]([O-])c1cc([N+](=O)[O-])c(O)c([N+](=O)[O-])c1`, inactive: 3.93%.
As for `CCOC(=O)c1ccc(NP(C)(=O)Oc2ccc(Cl)cc2)cc1` (configuration not stated), the figure is inactive: -0.23%.
The result for `CP(=O)(OC12CC3CC(CC(C3)C1)C2)OC12CC3CC(CC(C3)C1)C2` reads inactive: 2.21%; that for `CCN(CC)CC(O)COC(=O)C(O)(c1ccccc1)C1CCCCC1` (configuration not stated), inactive: -0.58%; that for `COc1ccc(OP(C)(=O)Nc2ccc(Br)cc2)cc1` (configuration not stated), inactive: -0.22%.
On to `COc1ccccc1OP(C)(=O)Nc1c(C)n(C)n(-c2ccccc2)c1=O` (configuration not stated), for which the inhibition is inactive: 0.32%.
`O=C(OCCCN1CCCC1)C(O)(c1ccccc1)C1CCCCC1` (configuration not stated): the inhibition is inactive: 1.57%.
The result for `CP(=O)(Oc1ccccc1)N1CCOC1=O` (configuration not stated) reads inactive: -0.05%; that for `CCc1ccc(OP(C)(=O)Nc2cccnc2)cc1` (configuration not stated), inactive: 0.86%.
As for `CC(C)(C)c1ccc(OP(C)(=O)O)cc1`, the figure is inactive: 0.77%; as for `COc1ccccc1OP(C)(=O)Nc1ccccc1Br` (configuration not stated), inactive: -1.35%.
The result for `CP(=O)(Nc1ccc(Cl)cc1)Oc1ccc(F)cc1` (configuration not stated) reads inactive: -0.31%; that for `CN(C)C(=O)c1c([N+](=O)[O-])cc([N+](=O)[O-])cc1[N+](=O)[O-]`, inactive: 1.34%; that for `COc1ccccc1OP(C)(=O)Nc1ccc(Br)cc1` (configuration not stated), inactive: -0.7%.
For the molecule `COc1ccc(OP(C)(=O)Nc2ccccn2)cc1` (configuration not stated), the inhibition is inactive: -0.12%.
Regarding `CN(C)CCOC(=O)C(O)(c1ccccc1)C1CCCC1` (configuration not stated), the inhibition was inactive: 0.37%.
As for `O=[N+]([O-])c1cc([N+](=O)[O-])c(Nc2ccccn2)c([N+](=O)[O-])c1`, the figure is inactive: 2%.
As for `Cc1c(NP(C)(=O)Oc2ccc(C(C)C)cc2)c(=O)n(-c2ccccc2)n1C` (configuration not stated), the figure is inactive: -0.63%; as for `CP(=O)(Nc1ccccn1)Oc1ccccc1` (configuration not stated), inactive: -0.26%.
For the molecule `COc1ccccc1OP(C)(=O)Nc1ccc(C)cc1C` (configuration not stated), the inhibition was inactive: -0.58%.
For `CCc1ccc(OP(C)(=O)O)cc1`, the inhibition is inactive: -0.33%.
For the molecule `O=C1C(O)=C([N+](=O)[O-])C(=O)C(O)=C1[N+](=O)[O-]`, the inhibition was inactive: 2.01%.
`Cc1cc(C)cc(OP(C)(=O)Nc2cccc(C(F)(F)F)c2)c1` (configuration not stated): the inhibition was inactive: 1.14%.
The result for `COc1ccccc1OP(C)(=O)Nc1ccc(C)c(C)c1` (configuration not stated) reads inactive: 0.46%; that for `COc1ccc(OP(C)(=O)Nc2ccccc2Br)cc1` (configuration not stated), inactive: 0.49%.
The result for `CP(=O)(OCCOc1ccccc1)OCCOc1ccccc1` reads inactive: 2.03%; that for `CP(=O)(Nc1ccc(Cl)cc1Cl)Oc1ccccc1` (configuration not stated), inactive: 0.89%; that for `CCCCCCCCCCCCCCCC1C[N+](C)(C)CCOP(C)(=O)O1` (configuration not stated), inactive: -1.51%.

For the origin of these results see PubChem BioAssay AID651718 (The Scripps Research Institute Molecular Screening Center, 2012).
